Patent publication US20090226393A1, “POLYMER PACLITAXEL CONJUGATES AND METHODS FOR TREATING CANCER” (NITTO DENKO CORPORATION, priority 2008, published 2009)
Read-outs that look alike come from different tables or passages of the source.

Columns and labels:
[1] = Plasma pharmacokinetics after single IV bolus in mice bearing NCI-H460 xenografts
[2] = not given; remark: listed apart in the source
[3] = Biodistribution in different organs (drug accumulation study); conditions: 48 hours post administration
[4] = not given; remark: listed apart in the source
[5] = 40 mg PTX equivalents/kg IV bolus
[6] = total PTX, 40 mg/kg PTX IV bolus
[7] = tumor, total PTX, 40 mg/kg PTX IV bolus

## poly-(gamma-L-glutamyl glutamine)-paclitaxel [PGGA70K-PTX35]
[1]
  PGGA-[^3H]PTX/[^3H]PTX Ratio of AUClast: 24
  PGGA-[^3H]PTX/[^3H]PTX Ratio of CL: 0.04
  PGGA-[^3H]PTX/[^3H]PTX Ratio of Cmax: 8.5
  PGGA-[^3H]PTX/[^3H]PTX Ratio of T1/2 Terminal: 5
  PGGA-[^3H]PTX/[^3H]PTX Ratio of Vd: 0.2
  mean terminal half-life: 296 h
[1]; [5]
  AUClast: 3,454 μg-h/ml
  Cmax: 517 µg/mL
[1]; at equivalent PTX doses
  increase of AUClast versus PTX: 23.6 fold
  increase of Cmax versus PTX: 8.5 fold
[1]; [6]
  AUClast: 3454375 ng·h/mL
  CL: 0.192 mL/min/kg
  Cmax: 517.084 µg/mL
  T1/2 Terminal: 296 h
other
  solubility in saline: 50 mg/mL
[2]; 48 hour period
  estimated total urinary excretion: 13.9%
[2]; within the first 48 hour
  detected in the feces: 36%
[3]
  amount retained in kidney: ~60 µg/g
  amount retained in liver: about 230 μg/g
  amount retained in lung: ~40 µg/g
  amount retained in spleen: ~160 µg/g
[4]; tumor
  PGGA-[^3H]PTX/[^3H]PTX Ratio of AUClast: 8
  PGGA-[^3H]PTX/[^3H]PTX Ratio of CL: 0.12
  PGGA-[^3H]PTX/[^3H]PTX Ratio of Cmax: 2
  PGGA-[^3H]PTX/[^3H]PTX Ratio of T1/2 Terminal: 2
  PGGA-[^3H]PTX/[^3H]PTX Ratio of Tmax: 2
[4]; tumor tissue
  AUClast: 2,496 μg-h/ml
  Cmax: 17 µg/mL
  terminal half-life: 107 h
[4]; tumor, at equivalent PTX doses
  increase of AUClast in the tumor versus PTX (amount of PTX delivered to the tumor): 7.7 fold
  increase of Cmax in the tumor versus PTX: 2.1 fold
[4]; [7]
  AUClast: 2496055 ng·h/mL
  CL: 0.2442 mL/min/kg
  Cmax: 17.538 µg/mL
  T1/2 Terminal: 107 h
  Tmax: 4 h
